This series in a line: Solubility in water.

Turning to “Polymeric Peroxide of trans-4,4'-Azobis(4-cyanovaleric acid) Terminated with Sodium Carboxylate Groups [Example 3]”, the solubility in water result was “partially soluble in water”.

(Values after US4088642A (priority 1973, dated 1978).)
